Target: Sarcoplasmic/endoplasmic reticulum calcium ATPase 1 (Oryctolagus cuniculus, UniProt P04191)

Chains of the proteins cited; added tags and fusions are not shown. Lines headed by an entry give the natural chain unless they say otherwise; changes in a name come on top.
UniProt P04191: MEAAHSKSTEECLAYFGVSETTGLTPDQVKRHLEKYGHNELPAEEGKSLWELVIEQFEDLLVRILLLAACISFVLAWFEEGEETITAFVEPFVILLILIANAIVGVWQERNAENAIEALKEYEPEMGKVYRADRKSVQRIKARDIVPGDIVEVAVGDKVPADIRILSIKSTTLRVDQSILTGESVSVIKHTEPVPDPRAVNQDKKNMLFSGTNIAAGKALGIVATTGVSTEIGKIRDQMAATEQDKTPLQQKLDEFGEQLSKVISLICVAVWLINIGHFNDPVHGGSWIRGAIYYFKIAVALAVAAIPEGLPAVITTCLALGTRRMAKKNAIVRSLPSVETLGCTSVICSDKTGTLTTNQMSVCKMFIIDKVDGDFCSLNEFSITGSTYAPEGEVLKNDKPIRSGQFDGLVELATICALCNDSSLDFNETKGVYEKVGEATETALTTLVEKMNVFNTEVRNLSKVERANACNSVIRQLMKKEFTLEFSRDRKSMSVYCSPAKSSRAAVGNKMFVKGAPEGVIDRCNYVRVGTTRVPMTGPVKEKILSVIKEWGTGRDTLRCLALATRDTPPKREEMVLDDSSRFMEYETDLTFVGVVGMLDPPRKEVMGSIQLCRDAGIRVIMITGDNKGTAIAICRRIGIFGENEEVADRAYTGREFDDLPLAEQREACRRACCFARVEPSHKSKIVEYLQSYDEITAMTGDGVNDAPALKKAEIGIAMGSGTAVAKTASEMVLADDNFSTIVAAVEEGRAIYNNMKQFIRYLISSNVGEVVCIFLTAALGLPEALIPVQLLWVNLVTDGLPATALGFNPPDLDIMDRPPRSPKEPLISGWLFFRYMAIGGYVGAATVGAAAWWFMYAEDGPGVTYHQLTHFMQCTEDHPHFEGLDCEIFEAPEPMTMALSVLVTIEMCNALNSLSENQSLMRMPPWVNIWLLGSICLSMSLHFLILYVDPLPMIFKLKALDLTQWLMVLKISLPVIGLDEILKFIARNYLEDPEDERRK

IC50: 5.7 µM
Structure (SMILES): O=[N+]([O-])c1ccc(Cc2cc(O)ccc2O)cc1 [hydroquinone derivative, 2b]
